## Curated experimental data: melting point values

From the experimental data distributed with OPERA 2.9.

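OPERA's authors assembled the values from existing databases and did not measure them anew. The files give a single number for a compound and property, which may rest on several reports. How each value was measured is not recorded, so precision varies. Where a salt, mixture or single isomer is drawn, the source does not say that exactly this form was tested. Unmarked limits or estimates from the upstream databases cannot be ruled out.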

Melting points are in °C. Cells with "n/a" have no entry in this list. The databases behind each value are named after "via".

| SMILES | name | MP (°C) | via |
|---|---|---|---|
| O=C(O)c1cccc2c1CCCN2 | 1,2,3,4-Tetrahydroquinoline-5-carboxylic acid | 143 | OCHEM |
| CCCCCCCCCCCC(=O)OCCCCCCCCCCC(C)C | 11-Methyldodecyl laurate | -12 | eChemPortal |
| COC(=O)CCc1cc(C(C)(C)C)c(O)c(C(C)(C)C)c1 | Methyl 3,5-bis(tert-butyl)-4-hydroxyhydrocinnamate | 65.75 | eChemPortal |
| OCCCCCCCCCSCCCC(F)(F)C(F)(F)F | 9-[(4,4,5,5,5-Pentafluoropentyl)sulfanyl]nonan-1-ol | 41 | ChemicalBook |
| CC(=O)Nc1cccc(C#N)c1 | N-(3-cyanophenyl)acetamide | 134 | OCHEM |
| N#Cc1ccc(CSc2ccccc2C(=O)O)cc1 | 2-(4-Cyano-benzylsulfanyl)-benzoic acid | 209 | OCHEM |
| CC(=O)c1ccc2c(c1)CC(=O)N2 | 5-ACETYLOXINDOLE | 218 | OCHEM |
| C[C@@H](O)[C@@H](O)[C@@H](O)CC=O | D-Digitoxose | 112 | OCHEM |
| O=C(O)c1cccc2c3c([nH]c12)CCCC3 | 2,3,4,9-tetrahydro-1H-carbazole-8-carboxylic acid | 191 | OCHEM |
| Cc1ccc(NC(N)=S)cc1C | (3,4-dimethylphenyl)thiourea | 185 | OCHEM |
| CCCCNC(=O)CC[C@H](NC(=O)C(CC)CCCC)C(=O)NCCCC (some centres undefined) | Dibutyl ethylhexanoyl glutamide | 187.4 | eChemPortal |
| Cc1cnc(Br)c(N)c1 | 2-Bromo-5-methylpyridin-3-amine | 104.5 | OCHEM |
| CCCCCCCCCCCCCCCCCC(=O)OC[C@@H](OC(=O)CCCCCCCCCCCCCCCCC)[C@H]1OC[C@H](O)[C@H]1OC(=O)CCCCCCCCCCCCCCCCC | Sorbitan tristearate | 54 | eChemPortal |
| O=c1cc(CCl)nc2ccccn12 | 2-(chloromethyl)-4H-pyrido[1,2-a]pyrimidin-4-one | 174 | OCHEM |
| CCOc1cccc(C(N)=S)c1 | 3-ethoxybenzenecarbothioamide | 119 | OCHEM |
| Cc1nc2ccccc2n1CCO | 2-(2-Methyl-1H-benzimidazol-1-yl)ethan-1-ol | 148 | OCHEM |
| CCCCC(CC)CNc1ccc2ccccc2c1N=Nc1ccc(N=Nc2ccccc2C)cc1C (centres undefined) | n/a | -13 | eChemPortal |
| CCOc1ccc(OCC(=O)O)cc1 | 4-Ethoxyphenoxyacetic acid | 128 | OCHEM |
| Nn1c(S)nnc1-c1ccccc1Cl | 4-Amino-5-(2-chlorophenyl)-4H-1,2,4-triazole-3-thiol | 112 | OCHEM |
| CC(=O)OCC(=O)[C@@]1(OC(C)=O)CC[C@H]2[C@@H]3C[C@H](F)C4=CC(=O)C=C[C@]4(C)C34O[C@@H]4C[C@@]21C (some centres undefined) | n/a | 207.8 | eChemPortal |
| O=C(O)[C@H]1O[C@H](O)[C@H](O)[C@@H](O)[C@@H]1O | alpha-D-Glucuronic acid | 143.5 | PubChem |
| CCCCN(CCCC)C(=O)c1ccc(C2=C3C(=O)NC(c4ccc(Cl)cc4)=C3C(=O)N2)cc1 | n/a | 390 | eChemPortal |
| C=CC(=O)OCC1CO1 (centres undefined) | Glycidyl acrylate | -41.5 | PubChem |
| CN(C1CCCCC1)S(=O)(=O)c1ccccc1/N=N/c1c(N)ccc2cc(S(=O)(=O)[O-])cc(O)c12.[Na+] | n/a | 298 | eChemPortal |
| Cc1ccc(S(=O)(=O)C(C#N)c2nc3ccccc3nc2Cl)cc1 (centres undefined) | n/a | 106 | OCHEM |
| O=C(O)CNc1ncnc2ccccc12 | (quinazolin-4-ylamino)acetic acid | 220 | OCHEM |
| CCOC(=O)C1=C(COCCNC(=O)c2ccccc2C(=O)O)NC(C)=C(C(=O)OC)C1c1ccccc1Cl (centres undefined) | n/a | 169 | eChemPortal |
| CC(C)CNC(=O)CC#N | 2-cyano-N-isobutylacetamide | 58 | OCHEM |
| Cc1ccccc1NCCNc1ccccc1C | 1,2-Ethanediamine, N,N'-bis(2-methylphenyl)- | 71.5 | OCHEM |
| O=C1C2=C(O)CCC(O)=C2C(=O)c2ccccc21 | n/a | 152.8 | eChemPortal |
| CCOC(=O)Cc1nc2ccccc2[nH]1 | Ethyl (1H-benzimidazol-2-yl)acetate | 180 | OCHEM |
| CC(=O)Nc1cc(C(=O)O)ccc1C | 3-acetamido-4-methylbenzoic acid | 278 | OCHEM |
| COC(=O)c1c(O)cc(=O)n2c1CCCCC2 | n/a | 223 | OCHEM |